Results on one molecule are retold here after patent publication US20220025050A1 (OSE IMMUNOTHERAPEUTICS, published 2022).

Protein sequences, listed by entry. Tags and fused reporters are not part of them. Lines headed by an entry give the natural chain unless they say otherwise; changes in a name come on top. Residues count along the entry.
UniProt Q15116, 25-167 limits assumed: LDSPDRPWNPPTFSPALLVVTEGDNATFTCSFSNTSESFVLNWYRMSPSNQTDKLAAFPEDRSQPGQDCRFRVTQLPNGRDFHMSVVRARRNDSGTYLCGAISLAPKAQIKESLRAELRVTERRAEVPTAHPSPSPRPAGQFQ

This experiment concerns the target T1, recombinant hPD1 (Sino Biologicals, reference 10377-H08H) (human, UniProt Q15116, in part).
T1 construct: also called Human recombinant PD-1 protein; PD1-His recombinant protein
The experiment in a line: ELISA: hPD-1 immobilized, anti-human Fc peroxidase.

B1: Chimeric anti-PD1 fused on its heavy chain to Type II-protein B (4-1BBL) (other, not shown: small tags and cut ends)
heavy: QIQLVQSGPELKKPGETVKISCKASGYTFTHYGMNWVKQAPGKGLKWMGWINTNTGEPTYAEEFKGRFAFSLETSASAAFLQINNLKNEDTATYFCAKEREPGMDSWGQGTSVTVSSASTKGPSVFPLAPCSRSTSESTAALGCLVKDYFPEPVTVSWNSGALTSGVHTFPAVLQSSGLYSLSSVVTVPSSSLGTKTYTCNVDHKPSNTKVDKRVESKYGPPCPPCPAPEFLGGPSVFLFPPKPKDTLMISRTPEVTCVVVDVSQEDPEVQFNWYVDGVEVHNAKTKPREEQFNSTYRVVSVLTVLHQDWLNGKEYKCKVSNKGLPSSIEKTISKAKGQPREPQVYTLPPSQEEMTKNQVSLTCLVKGFYPSDIAVEWESNGQPENNYKTTPPVLDSDGSFFLYSRLTVDKSRWQEGNVFSCSVMHEALHNHYTQKSLSLSPGKREGPELSPDDPAGLLDLRQGMFAQLVAQNVLLIDGPLSWYSDPGLAGVSLTGGLSYKEDTKELVVAKAGVYYVFFQLELRRVVAGEGSGSVSLALHLQPLRSAAGAAALALTVDLPPASSEARNSAFGFQGRLLHLSAGQRLGVHLHTEARARHAWQLTQGATVLGLFRVTPEIPAGLPSPRSE
light: DVLLTQTPLSLPVSLGDQASISCRSSQNIVHANGNTYLEWYLQKPGQSPKLLIYKVSNRFSGVPDRFSGSGSGTDFTLKITRVEAEDLGVYYCFQGSHVPNTFGGGTKLEIKRTVAAPSVFIFPPSDEQLKSGTASVVCLLNNFYPREAKVQWKVDNALQSGNSQESVTEQDSKDSTYSLSSTLTLSKADYEKHKVYACEVTHQGLSSPVTKSFNRGEC
notes: Bifunctional molecule
For the molecule B1, the EC50 came to 2.4 ng/mL.
